Source: US8927715B2, “Inhibitors of 11β-hydroxysteroid dehydrogenase type 1” (Vitae Pharmaceuticals, Inc., priority 2006, dated 2015)

Sequences of proteins named here, by UniProt entry; tags and fusion partners are left off.
UniProt P28845, whole entry: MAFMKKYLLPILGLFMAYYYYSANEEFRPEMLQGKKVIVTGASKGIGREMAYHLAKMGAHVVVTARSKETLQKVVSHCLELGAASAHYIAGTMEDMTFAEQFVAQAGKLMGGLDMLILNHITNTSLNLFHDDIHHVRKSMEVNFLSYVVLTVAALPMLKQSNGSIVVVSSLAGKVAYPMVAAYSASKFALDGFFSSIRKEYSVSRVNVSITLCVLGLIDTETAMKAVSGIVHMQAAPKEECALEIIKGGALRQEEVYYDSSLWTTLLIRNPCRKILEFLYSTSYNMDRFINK

Biological target: T1, human 11β-HSD1 (Homo sapiens, UniProt P28845)
Experiment: Scintillation Proximity Assay: inhibition of purified 11β-HSD1 (Biological Test Example 1)
Conditions: read-out: Biological Test Example 1 (IC50 class); purified recombinant 11β-HSD1, SPA

Structure (SMILES)	IC50
COC(=O)CC1CC2(CCN(C(=O)NC3C4CC5CC(C4)CC3C5)CC2)c2ccccc21 (single isomer, unassigned)	< 50 nM

Biological target: T1, human 11β-HSD1
Experiment: Inhibition of a microsomal preparation of 11β-HSD1, SPA (Biological Test Example 2)
Format: biochemical
Conditions: read-out: Biological Test Example 2 (IC50 class)

Structure (SMILES)	IC50
O=C(O)CC1CC2(CCN(C(=O)OC3C4CC5CC(C4)CC3C5)CC2)c2c(Br)cccc21 (single isomer, unassigned)	< 50 nM
O=C(O)CC1CC2(CCN(C(=O)NC3C4CC5CC3CC(F)(C5)C4)CC2)c2c(Br)cccc21 (single isomer, unassigned)	< 50 nM
O=C(O)CC1CC2(CCN(C(=O)NC3C4CC5CC3CC(O)(C5)C4)CC2)c2c(Br)cccc21 (single isomer, unassigned) [75 Isomer 3]	50 to 1000 nM
O=C(O)CC1CC2(CCN(C(=O)NC3C4CC5CC3CC(O)(C5)C4)CC2)c2c(Br)cccc21 (single isomer, unassigned) [75 Isomer 2]	< 50 nM
CN1C(=S)c2ccccc2C12CCN(C(=O)NC1C3CC4CC(C3)CC1C4)CC2 (stereo not shown) [103, Step 1 Product]	< 50 nM
O=C(O)CC1CC2(CCN(C(=O)NC3C4CC5CC3CC(O)(C5)C4)CC2)c2c(Br)cccc21 (single isomer, unassigned) [75 Isomer 1]	< 50 nM

Further lines, results first:

IC50	Structure (SMILES)
< 50 nM	CCOC(=O)C=C1CC2(CCN(C(=O)NC3C4CC5CC(C4)CC3C5)CC2)c2c(Br)cccc21 (single isomer, unassigned)
< 50 nM	O=C(O)CC1CC2(CCN(C(=O)NC3C4CC5CC(C4)CC3C5)CC2)c2c(Br)cccc21 (single isomer, unassigned)
< 50 nM	CNCCN(C)C(=O)CC1CC2(CCN(C(=O)NC3C4CC5CC(C4)CC3C5)CC2)c2c(Br)cccc21 (single isomer, unassigned)
